Measurements published in article PMC8869358, “High-Throughput Chemical Screening and Structure-Based Models to Predict hERG Inhibition” (Biology, 2022).
Structures can show the parent of a compound that is named as a salt. Where two headings read alike, the source gives them in different places.

By UniProt entry, the sequences of proteins in these tests, tags left out. Where a name states a change or a piece, a line headed by the entry shows the natural chain unless it says otherwise.
UniProt Q12809: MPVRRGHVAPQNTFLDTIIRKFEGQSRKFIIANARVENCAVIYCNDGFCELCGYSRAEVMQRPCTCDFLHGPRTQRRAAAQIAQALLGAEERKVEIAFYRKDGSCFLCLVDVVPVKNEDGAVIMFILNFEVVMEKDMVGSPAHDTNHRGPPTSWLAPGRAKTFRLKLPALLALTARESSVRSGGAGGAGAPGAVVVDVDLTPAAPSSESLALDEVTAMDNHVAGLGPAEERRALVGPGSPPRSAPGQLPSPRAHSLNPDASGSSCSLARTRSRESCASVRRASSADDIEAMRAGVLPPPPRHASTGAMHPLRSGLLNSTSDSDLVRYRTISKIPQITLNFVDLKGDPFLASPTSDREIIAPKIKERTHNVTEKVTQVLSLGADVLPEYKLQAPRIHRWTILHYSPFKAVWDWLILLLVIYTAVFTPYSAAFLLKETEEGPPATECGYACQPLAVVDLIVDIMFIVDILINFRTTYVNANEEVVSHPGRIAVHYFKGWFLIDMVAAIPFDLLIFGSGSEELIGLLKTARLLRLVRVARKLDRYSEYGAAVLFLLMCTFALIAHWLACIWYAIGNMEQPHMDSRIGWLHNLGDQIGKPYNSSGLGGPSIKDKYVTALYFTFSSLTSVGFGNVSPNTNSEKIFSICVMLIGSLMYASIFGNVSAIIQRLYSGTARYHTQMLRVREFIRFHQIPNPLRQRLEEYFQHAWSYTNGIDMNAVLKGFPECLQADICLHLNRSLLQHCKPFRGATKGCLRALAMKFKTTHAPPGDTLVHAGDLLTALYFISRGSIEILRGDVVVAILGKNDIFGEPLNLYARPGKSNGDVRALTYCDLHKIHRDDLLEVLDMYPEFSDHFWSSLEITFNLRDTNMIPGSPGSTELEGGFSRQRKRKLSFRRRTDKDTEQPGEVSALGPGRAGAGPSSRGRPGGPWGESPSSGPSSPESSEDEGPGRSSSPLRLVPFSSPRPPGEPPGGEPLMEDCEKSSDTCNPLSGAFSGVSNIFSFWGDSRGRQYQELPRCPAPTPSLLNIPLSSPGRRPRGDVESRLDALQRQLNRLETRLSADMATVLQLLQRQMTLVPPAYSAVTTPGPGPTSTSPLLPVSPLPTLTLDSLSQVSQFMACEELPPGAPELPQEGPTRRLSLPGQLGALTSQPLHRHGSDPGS

Experiments:
hERG [1] = target: T1, hERG (Homo sapiens, UniProt Q12809); assay: cell-based; details: (-LOG10(IC50), µM)
hERG [2] = target: T1, hERG; details: read-out: IC50 reported in patch-clamp assay; cited from earlier work
hERG [3] = target: T1, hERG; design: method as in PMID 29058187; details: read-out: IC50 reported in thallium flux; cited from earlier work
hERG [4] = target: T1, hERG; assay: Tox21 qHTS FluxOR thallium flux assay in hERG-U2OS cells
hERG [5] = target: T1, hERG

SMILES | IC50 (hERG [1]) | activity outcome for hERG inhibition in the assay (hERG [5]) | also measured
C[C@@H](O)[C@H]1C(=O)N2C(C(=O)O)=C(S[C@@H]3CN[C@H](CNS(N)(=O)=O)C3)[C@H](C)[C@H]12 [Doripenem] | 8.82 µM |  | 
Fc1ccc(C(OCCN2CCN(CCCc3ccccc3)CC2)c2ccc(F)cc2)cc1 [GBR 12909 dihydrochloride, GBR 12909 dihydrochloride (Vanoxerine)] |  |  | IC50 (hERG [2]): 0.84 nM; IC50 (hERG [3]): 220 nM; IC50 (hERG [4]; (-LOG10(IC50), µM), Supplementary File S2, Tox21 chemical library): 0.0756 µM; IC50 (hERG [4]; IC50, hERG-U2OS cells, thallium flux, qHTS, 15 concentrations, three runs): 0.075 µM
O=C1C2(Cl)C3(Cl)C4(Cl)C(Cl)(Cl)C5(Cl)C3(Cl)C1(Cl)C5(Cl)C24Cl (centres unmarked) [Kepone] |  | inhibitory activity | 
O[C@@H](c1cc(C(F)(F)F)nc2c(C(F)(F)F)cccc12)[C@H]1CCCCN1 [Mefloquine hydrochloride] | 15.7 µM |  | 
CN1CCCCC1CCN1c2ccccc2Sc2ccc([S+](C)[O-])cc21 (centres unmarked) [Mesoridazine] | 7.56 µM |  | 
O=C1Cc2cc(CCN3CCN(c4nsc5ccccc45)CC3)c(Cl)cc2N1 [Ziprasidone] | 5.78 µM |  | 
CCOP(=S)(OCC)Oc1ccc([N+](=O)[O-])cc1 [parathion] |  | inhibitory activity | 
O=P(Oc1ccccc1)(Oc1ccccc1)Oc1ccccc1 [triphenyl phosphate] |  | inhibitory activity | 
